{"sequences": {"note": "Chains of the proteins cited; added tags and fusions are not shown.", "UniProt P41595, whole entry, species assumed": "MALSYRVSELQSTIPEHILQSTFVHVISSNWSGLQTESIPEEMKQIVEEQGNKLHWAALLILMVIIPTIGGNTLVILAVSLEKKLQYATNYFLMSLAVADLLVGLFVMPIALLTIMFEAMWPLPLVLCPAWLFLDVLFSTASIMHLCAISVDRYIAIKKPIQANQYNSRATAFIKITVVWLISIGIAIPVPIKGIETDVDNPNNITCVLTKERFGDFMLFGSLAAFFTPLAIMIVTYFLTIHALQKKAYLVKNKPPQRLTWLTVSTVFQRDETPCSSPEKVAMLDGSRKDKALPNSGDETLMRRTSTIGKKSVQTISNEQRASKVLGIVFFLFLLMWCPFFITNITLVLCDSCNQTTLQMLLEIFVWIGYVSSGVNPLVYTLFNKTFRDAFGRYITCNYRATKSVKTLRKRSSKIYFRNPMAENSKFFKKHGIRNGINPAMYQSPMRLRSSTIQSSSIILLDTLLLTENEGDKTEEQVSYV"}, "source": "paper PMC8654833", "about": "(Scientific Reports, 2021)", "target": "5-HT2B (Homo sapiens, UniProt P41595)", "assay": "biochemical", "data": [{"compound": "CC(N)Cc1c[nH]c2ccc(OCc3cccs3)cc12", "note": "(stereo not shown) [BW, 1-[5-(thiophen-2-ylmethoxy)-1H-indol-3-yl]propan-2-amine]", "values": [{"measurement": "IC50", "value": 0.0316, "unit": "µM"}]}]}
